This note sets out measurements from patent US8551984B2, “Aminopyrimidines as SYK inhibitors” (Merck Sharp & Dohme Corp., priority 2009, dated 2013).

This test deals with recombinant human SYK (GST-hSYK fusion protein) (Homo sapiens, UniProt P43405). As to conditions: tested form: formate.

In the case of `COc1nc(Nc2cc(C)cc(-c3cnc(C4(O)CCC(C(=O)O)C(C)C4)s3)c2)ncc1F` (single isomer, unassigned), the IC50 (as a rule, the point on the concentration scale where inhibition reaches its midpoint) was below 100 nM.
